Screening results from PubChem BioAssay.
The full list was thinned out, with hits kept by preference.
HCMV UL50-53 inh: cytomegalovirus nuclear egress complex inhibition; inhibition, % (concentration not given with the values); actives 0.15% (n = 190,000); HTRF UL50-UL53 interaction, normalized percent inhibition; in the data active = inhibition above about 27%, passing the limit was not always enough
GIV-Gai inh: inhibitors of GIV peptide binding to Galpha-i3, primary screen, biochemical, fluorescence polarization, FITC-GIV GBA peptide, rat Galphai3; 90 min; stronger effect = lower value; scaled: aluminum fluoride 0%, vehicle 100%; percent of control (FP), % (test concentration not listed); 0.42% of 210,000 active; AID 1224905, 2016;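 active = replicate mean at 85% of control or lower, very high polarization wells dropped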;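 also: wells of about 15 µL received 100 nL stock; the first replicate is given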
GIV Gai FP conf: GIV-Galpha-i3 inhibition, FP confirmation | shares compounds with GIV-Gai inh | FITC-GIV peptide binding to Galphai3, fluorescence polarization; active compounds read low | fluorescence polarization, mP at 100 µM | actives 38% (n = 580) | AID 1259350;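 active = inhibition score of 15 or more, meaning 100 minus mean polarization as percent of control over three replicates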;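 also: lower mP means peptide displaced from Galphai3 so more inhibition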
GIV Gai AS conf: GIV-Galpha-i3 inhibition, AlphaScreen confirmation | actives 39% (n = 580) | AlphaScreen Galphai3-GIV binding, purified proteins, 90 min; active compounds read low | shares compounds with GIV-Gai inh | AlphaScreen counts at 100 µM;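 active = inhibition score at or above a set limit, where the score is 100 minus the three-replicate mean percent of control signal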
An asterisk follows results filed as active; . = no result.

SMILES	HCMV UL50-53 inh	GIV-Gai inh	others
O=c1ccc2[nH]cc(C3=CCNCC3)c2[nH]1	5	107
C1=C(c2c[nH]c3ccccc23)CCNC1	-26	-23*
Cc1cccc(-c2nc(CN3C(=O)C(C)N=C(c4ccccc4F)c4cc(Cl)ccc43)c(C)o2)c1 (stereo unspecified)	.	101
COc1cc(C=C2C(=O)NC(=O)NC2=O)ccc1OS(=O)(=O)c1ccccc1	60*	89
COc1ccc(C=C2C(=O)NC(=O)NC2=O)cc1	.	97
CCOC(=O)CSCCOc1ccc(C=C2C(=O)NC(=O)NC2=O)cc1OC	60*	98
CCOC(=O)COc1ccc(/C=C2\C(=O)NC(=S)N(c3ccc(OC)cc3)C2=O)cc1OC	-32	102
CCN(CC)P(=S)(c1ccc(/C=N/NC(N)=O)s1)N(CC)CC	-28	.
CCOc1ccc(N2C(=O)NC(=O)/C(=C/c3cn(CC(=O)Nc4ccccc4)c4ccccc34)C2=O)cc1	1	-4.9*
COc1ccc(N2C(=O)NC(=O)/C(=C\c3cn(CC(=O)Nc4ccccc4)c4ccccc34)C2=O)cc1	.	89
O=C1NC(=O)C(=Cc2ccc(Br)cc2)C(=O)N1	8	.
COC(=O)Cn1cc(C=C2C(=O)N(C)C(=O)N(C)C2=O)c2ccccc21	-15	-2.1*

Brought forward from above: 2 compounds; new compounds follow.
SMILES	HCMV UL50-53 inh	GIV-Gai inh	others
O=C1NC(=O)C(=Cc2ccc(Br)cc2)C(=O)N1	8	.
COC(=O)Cn1cc(C=C2C(=O)N(C)C(=O)N(C)C2=O)c2ccccc21	-15	-2.1*
CCN1C(=O)NC(=O)/C(=C\c2cn(CC(=O)O)c3ccccc23)C1=O	-39	110
CN1CCc2c(C#N)c(N)n(N)c(=S)c2C1	-67	-103*
CN1CCc2[nH]c(=S)c(C#N)c(-c3ccccc3)c2C1	-30	.
O=C(NCCc1c[nH]c2ccccc12)c1cc2cccnc2n(Cc2ccccc2F)c1=O	-26	111
CN1C(=O)[C@]23CC4=CC=C[C@H](O)[C@H]4N2C(=O)[C@@]1(CO)SS3	55*	.
CC(C)(C)NP(C)(=O)C(C)(C)C (stereo unspecified)	-5	102
N#CC(C#N)=Cc1ccc(-c2ccccc2)o1	-19	-0.4*
Cc1ccc(C=C(C#N)C#N)o1	-65	104
CCNC(=O)N1CCC2(C1)C(=O)Nc1ccc(OC)cc12 (stereo unspecified)	.	106
CC12CC[C@H]3[C@@H](CCC4(O)C[C@H](O)CCC34/C=N/NC(=O)c3ccc4ccccc4n3)C1(O)CCC2C1=CC(=O)OC1 (stereo partly specified)	.	125
COc1ccc2[nH]c(C)c(CCNCc3ccc(C#N)cc3)c2c1	7	108
CC(C)OC(=O)C1C(=O)NC23CCCCC2C1c1ccccc1O3 (stereo unspecified)	.	100

Sorted by length of the SMILES (highest first): some entries from above.
SMILES	HCMV UL50-53 inh	GIV-Gai inh	others
O=C(NCCc1c[nH]c2ccccc12)c1cc2cccnc2n(Cc2ccccc2F)c1=O	-26	111
CCN1C(=O)NC(=O)/C(=C\c2cn(CC(=O)O)c3ccccc23)C1=O	-39	110
CCNC(=O)N1CCC2(C1)C(=O)Nc1ccc(OC)cc12 (stereo unspecified)	.	106

(continued)
SMILES	HCMV UL50-53 inh	GIV-Gai inh	others
Cn1c(=O)c2ncnnc2n(C)c1=O	12	77*	GIV Gai FP conf=58*;GIV Gai AS conf=35976
CCCCCCCCCCCCCCCCSP(=O)([O-])OCC[N+](C)(C)C	-19	.
O=C1NC(=O)N(Cc2ccccc2)C(=O)/C1=C\c1ccccc1	.	15*	GIV Gai FP conf=31*;GIV Gai AS conf=14998*
O=C1NC(=O)N(Cc2ccccc2)C(=O)/C1=C/c1ccc(O)cc1	31	111
CCC(=O)N1c2ccc(C)cc2C2CN(C)CCC21 (stereo unspecified)	.	106
N#CC1(C(=O)O)CC2c3ccccc3C1c1ccccc12 (stereo unspecified)	-1	106
O=C1NC(=S)NC(=O)C1=Cc1ccco1	2	73*	GIV Gai FP conf=57*;GIV Gai AS conf=5695*
CN1C(=O)NC(=O)/C(=C/c2ccco2)C1=O	-2	100
CNC(=O)Oc1ccc2sc(=O)oc2c1	-23	94
